Results taken from PubChem BioAssay (NCATS).
Where “and” joins values, the source holds several entries; their conditions need not be identical. Equal entries are not always repeated. Only a part is listed here, and it is no random draw. Records with an inconclusive call do not appear. Calls of active or inactive are those of the source. Unless noted, calls follow the shape of the dose curve; as a rule, active = well fitted curve in the direction sought with a large enough effect; inconclusive = small, poorly fitted or top-dose-only effect, or another doubt; inactive = no such curve, though single readings can be large; an effect the other way counts as inactive or inconclusive.

Amino acid sequences for entries named in this document (tags omitted). A change or cut given only in a name is not applied to a line headed by its entry.
UniProt P16066: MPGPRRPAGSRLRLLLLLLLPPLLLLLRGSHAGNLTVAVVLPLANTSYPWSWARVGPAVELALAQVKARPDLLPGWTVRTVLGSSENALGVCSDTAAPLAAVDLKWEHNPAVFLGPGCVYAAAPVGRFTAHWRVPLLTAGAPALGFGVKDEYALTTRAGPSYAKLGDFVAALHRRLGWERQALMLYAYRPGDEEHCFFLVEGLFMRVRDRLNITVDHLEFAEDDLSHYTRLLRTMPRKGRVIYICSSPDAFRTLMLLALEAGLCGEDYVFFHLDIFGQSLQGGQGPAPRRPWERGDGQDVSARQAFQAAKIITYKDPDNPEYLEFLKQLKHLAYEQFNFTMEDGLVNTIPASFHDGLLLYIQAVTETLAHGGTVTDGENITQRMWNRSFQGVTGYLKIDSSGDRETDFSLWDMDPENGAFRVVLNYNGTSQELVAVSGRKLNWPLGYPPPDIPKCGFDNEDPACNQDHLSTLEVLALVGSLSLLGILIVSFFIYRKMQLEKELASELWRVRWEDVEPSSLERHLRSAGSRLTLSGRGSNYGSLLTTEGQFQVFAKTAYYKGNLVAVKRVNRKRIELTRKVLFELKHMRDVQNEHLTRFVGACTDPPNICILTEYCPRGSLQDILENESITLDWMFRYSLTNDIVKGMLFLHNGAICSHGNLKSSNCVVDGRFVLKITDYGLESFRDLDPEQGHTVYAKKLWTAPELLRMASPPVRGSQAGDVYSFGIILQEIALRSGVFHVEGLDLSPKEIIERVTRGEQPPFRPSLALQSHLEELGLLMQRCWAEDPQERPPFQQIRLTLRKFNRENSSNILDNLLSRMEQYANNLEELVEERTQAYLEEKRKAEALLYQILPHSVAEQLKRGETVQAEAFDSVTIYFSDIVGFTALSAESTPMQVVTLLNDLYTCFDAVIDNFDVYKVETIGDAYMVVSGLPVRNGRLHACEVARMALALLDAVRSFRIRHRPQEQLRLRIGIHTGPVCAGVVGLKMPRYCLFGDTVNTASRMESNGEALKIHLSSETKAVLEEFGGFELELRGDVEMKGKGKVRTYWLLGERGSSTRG
UniProt P20594: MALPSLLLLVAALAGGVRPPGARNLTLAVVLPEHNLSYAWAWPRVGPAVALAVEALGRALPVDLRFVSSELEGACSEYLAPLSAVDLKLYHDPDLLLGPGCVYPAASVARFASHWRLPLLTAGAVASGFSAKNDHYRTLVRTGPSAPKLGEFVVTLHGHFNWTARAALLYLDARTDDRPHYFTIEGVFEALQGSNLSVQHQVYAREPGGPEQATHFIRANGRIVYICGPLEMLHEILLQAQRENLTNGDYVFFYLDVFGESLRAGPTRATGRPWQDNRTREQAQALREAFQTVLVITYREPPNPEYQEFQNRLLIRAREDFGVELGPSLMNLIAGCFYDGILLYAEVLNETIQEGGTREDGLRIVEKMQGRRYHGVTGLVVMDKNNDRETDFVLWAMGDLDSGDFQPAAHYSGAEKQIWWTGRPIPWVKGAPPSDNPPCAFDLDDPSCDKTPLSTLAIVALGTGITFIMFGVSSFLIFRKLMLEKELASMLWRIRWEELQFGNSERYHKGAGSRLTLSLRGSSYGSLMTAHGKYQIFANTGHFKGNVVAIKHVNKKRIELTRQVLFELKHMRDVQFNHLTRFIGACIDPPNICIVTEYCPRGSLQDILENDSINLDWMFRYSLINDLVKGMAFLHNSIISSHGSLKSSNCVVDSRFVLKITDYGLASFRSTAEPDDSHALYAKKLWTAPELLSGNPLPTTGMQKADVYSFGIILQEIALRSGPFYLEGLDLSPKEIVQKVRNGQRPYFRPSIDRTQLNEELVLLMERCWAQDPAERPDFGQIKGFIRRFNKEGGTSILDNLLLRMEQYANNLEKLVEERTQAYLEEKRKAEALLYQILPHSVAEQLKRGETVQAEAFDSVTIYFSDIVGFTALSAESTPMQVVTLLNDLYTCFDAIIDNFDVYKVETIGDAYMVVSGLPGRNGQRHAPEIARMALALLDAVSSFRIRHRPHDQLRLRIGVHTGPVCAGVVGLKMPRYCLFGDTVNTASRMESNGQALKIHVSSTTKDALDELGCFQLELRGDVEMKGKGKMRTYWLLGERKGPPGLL
UniProt P78324, whole entry, looked up: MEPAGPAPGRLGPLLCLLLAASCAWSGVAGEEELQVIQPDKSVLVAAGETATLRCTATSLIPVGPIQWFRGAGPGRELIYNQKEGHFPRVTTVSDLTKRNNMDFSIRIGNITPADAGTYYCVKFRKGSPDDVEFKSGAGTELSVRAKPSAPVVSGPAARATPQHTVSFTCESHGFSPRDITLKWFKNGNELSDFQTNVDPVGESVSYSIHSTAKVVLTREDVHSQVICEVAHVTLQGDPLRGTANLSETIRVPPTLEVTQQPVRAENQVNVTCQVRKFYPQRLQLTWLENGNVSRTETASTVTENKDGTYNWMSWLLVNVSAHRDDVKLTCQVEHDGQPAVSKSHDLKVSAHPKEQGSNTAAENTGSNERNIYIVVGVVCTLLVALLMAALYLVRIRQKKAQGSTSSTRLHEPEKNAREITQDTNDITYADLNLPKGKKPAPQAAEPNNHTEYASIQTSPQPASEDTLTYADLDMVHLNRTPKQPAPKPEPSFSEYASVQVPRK
UniProt Q08722, whole entry, looked up: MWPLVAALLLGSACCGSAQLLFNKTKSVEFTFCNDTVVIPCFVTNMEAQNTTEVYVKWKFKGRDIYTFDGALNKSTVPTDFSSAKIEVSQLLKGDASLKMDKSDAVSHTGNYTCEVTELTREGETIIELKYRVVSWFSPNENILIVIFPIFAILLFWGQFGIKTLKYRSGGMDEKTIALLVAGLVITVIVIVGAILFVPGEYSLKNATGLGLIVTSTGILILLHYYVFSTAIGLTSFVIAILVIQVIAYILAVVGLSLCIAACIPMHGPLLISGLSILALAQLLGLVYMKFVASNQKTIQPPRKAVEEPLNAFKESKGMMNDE
UniProt Q03431: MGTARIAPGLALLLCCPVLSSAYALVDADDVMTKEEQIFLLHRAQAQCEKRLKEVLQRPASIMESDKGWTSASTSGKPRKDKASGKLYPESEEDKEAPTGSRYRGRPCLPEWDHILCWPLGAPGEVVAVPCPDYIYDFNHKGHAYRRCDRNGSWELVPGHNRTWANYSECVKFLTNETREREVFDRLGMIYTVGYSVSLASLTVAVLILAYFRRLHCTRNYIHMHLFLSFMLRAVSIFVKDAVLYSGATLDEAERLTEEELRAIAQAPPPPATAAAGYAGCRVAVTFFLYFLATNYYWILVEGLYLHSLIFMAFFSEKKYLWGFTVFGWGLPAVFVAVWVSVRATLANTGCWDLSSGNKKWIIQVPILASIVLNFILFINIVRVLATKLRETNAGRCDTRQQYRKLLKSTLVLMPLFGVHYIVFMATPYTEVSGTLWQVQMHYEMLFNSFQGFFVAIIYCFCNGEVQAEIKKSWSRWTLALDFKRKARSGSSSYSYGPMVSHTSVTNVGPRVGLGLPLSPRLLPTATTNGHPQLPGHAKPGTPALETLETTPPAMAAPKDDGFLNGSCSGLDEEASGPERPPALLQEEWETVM
UniProt Q9BV86: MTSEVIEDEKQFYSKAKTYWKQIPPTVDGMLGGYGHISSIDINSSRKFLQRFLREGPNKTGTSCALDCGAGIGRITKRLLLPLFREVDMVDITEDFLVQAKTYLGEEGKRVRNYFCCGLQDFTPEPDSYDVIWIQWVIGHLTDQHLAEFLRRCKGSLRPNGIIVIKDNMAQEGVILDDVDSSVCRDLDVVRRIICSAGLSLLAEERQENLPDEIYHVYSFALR
UniProt Q9UGL1: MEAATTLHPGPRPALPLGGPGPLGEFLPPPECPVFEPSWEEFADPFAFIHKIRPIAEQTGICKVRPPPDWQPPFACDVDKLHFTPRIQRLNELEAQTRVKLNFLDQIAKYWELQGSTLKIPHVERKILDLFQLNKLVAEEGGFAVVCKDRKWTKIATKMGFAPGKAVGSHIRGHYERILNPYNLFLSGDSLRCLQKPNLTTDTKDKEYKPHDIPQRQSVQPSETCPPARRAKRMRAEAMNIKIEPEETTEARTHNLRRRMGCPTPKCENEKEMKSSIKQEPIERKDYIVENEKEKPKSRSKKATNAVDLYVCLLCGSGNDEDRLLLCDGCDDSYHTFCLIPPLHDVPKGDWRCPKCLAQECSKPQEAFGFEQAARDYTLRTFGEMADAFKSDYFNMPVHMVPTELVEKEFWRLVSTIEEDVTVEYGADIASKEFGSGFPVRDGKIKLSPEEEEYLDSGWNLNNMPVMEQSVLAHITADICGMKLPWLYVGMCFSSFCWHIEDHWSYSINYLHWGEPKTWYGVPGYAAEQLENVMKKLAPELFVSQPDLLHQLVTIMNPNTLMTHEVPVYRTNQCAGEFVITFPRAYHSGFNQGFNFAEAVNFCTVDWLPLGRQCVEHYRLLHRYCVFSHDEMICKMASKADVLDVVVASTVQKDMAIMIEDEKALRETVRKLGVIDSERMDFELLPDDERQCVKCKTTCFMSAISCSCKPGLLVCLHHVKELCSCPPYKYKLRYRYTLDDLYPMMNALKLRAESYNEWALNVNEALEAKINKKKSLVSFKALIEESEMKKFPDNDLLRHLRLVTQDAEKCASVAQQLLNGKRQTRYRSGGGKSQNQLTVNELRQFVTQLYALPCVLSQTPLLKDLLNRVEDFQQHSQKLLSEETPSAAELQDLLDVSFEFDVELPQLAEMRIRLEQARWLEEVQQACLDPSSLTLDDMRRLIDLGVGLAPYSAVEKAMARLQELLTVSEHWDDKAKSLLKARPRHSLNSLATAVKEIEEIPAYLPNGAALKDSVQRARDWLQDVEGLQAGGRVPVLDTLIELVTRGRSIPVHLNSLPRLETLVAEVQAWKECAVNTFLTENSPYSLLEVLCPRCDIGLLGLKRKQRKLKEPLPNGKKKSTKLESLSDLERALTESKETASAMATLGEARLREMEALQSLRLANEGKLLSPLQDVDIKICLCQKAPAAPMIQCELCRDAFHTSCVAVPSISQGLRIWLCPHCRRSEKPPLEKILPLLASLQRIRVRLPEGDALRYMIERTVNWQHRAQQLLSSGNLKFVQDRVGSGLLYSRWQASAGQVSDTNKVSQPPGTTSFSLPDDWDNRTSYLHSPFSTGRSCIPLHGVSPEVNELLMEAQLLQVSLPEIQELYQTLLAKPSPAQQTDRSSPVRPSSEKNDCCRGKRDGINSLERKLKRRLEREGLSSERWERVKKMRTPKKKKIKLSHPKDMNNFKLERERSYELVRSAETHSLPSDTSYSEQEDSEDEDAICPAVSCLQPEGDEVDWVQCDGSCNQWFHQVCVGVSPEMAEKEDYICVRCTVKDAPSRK
UniProt Q9GZX7: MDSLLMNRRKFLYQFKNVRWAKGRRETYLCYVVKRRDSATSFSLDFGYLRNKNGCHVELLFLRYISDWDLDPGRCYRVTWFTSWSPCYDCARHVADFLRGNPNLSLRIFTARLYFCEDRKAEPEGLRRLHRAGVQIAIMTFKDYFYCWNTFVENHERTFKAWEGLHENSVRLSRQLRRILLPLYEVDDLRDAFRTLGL
UniProt Q99828: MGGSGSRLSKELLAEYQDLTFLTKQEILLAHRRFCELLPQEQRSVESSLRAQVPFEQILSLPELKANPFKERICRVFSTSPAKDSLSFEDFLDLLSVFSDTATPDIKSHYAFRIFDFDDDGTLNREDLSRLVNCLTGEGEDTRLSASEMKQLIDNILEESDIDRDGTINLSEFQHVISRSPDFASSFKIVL
UniProt C7C422: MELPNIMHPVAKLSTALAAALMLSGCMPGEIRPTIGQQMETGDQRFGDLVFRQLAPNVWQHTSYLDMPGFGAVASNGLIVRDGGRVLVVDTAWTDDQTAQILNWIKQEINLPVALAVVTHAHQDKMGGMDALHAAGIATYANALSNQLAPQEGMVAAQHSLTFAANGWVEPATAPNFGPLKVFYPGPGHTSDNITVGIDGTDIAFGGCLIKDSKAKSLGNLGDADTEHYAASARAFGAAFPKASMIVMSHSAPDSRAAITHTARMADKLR

Experiments:
[1] = qHTS Assay for Identifying Gametocytocidal Compounds (AID 743244);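 also: % is scaled to controls: 0 for no effect and ±100 for the full control effect; actives lower the fluorescent signal which means gametocytes are killed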; conditions: P. falciparum 3D7 stage III-V gametocytes, alamarBlue, 72 h; max response: active compounds read low
[2] = Natriuretic polypeptide receptor (hNpr1) antagonism - Pilot counterscreen GloSensor control cell line (AID 1347045; calls by dose curve; also: % is scaled to controls: 0 for no effect and ±100 for the full control effect); conditions: GloSensor cAMP control cell line, luminescence counterscreen; at 38.3 µM (top of the series)
Procedure, shortened: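 HEK293 cGMP GloSensor cells preloaded 2 h with 2% GloSensor reagent, then compound 30 min before baseline luminescence read. Stimulated with 50 uM sodium nitroprusside, 20 min at room temperature, then read again; counterscreen for Npr1 antagonism.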

[3] = target: Atrial natriuretic peptide receptor 1 (Homo sapiens) (UniProt P16066); assay: Natriuretic polypeptide receptor (hNpr1) antagonism - Pilot screen (AID 1347049; calls by dose curve;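 also: agonist-evoked cGMP luminescence read 20 min after hNppA addition; % is scaled to controls: 0 for no effect and ±100 for the full control effect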); conditions: hNpr1 cells, antagonist mode cGMP read-out; at 57.5 µM (top of the series)
Procedure, shortened: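 Readout is cGMP-driven firefly luciferase luminescence in HEK293 cells carrying hNpr1 and a PDE5-domain GloSensor, read before and 20 min after 0.1 nM hNppA stimulation. Cells had 2% substrate reagent for 2 h and test compound for 30 min.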

[4] = target: Atrial natriuretic peptide receptor 2 (Homo sapiens) (UniProt P20594); assay: Natriuretic polypeptide receptor (hNpr2) antagonism - Pilot subtype selectivity assay (AID 1347050; calls by dose curve; also: % is scaled to controls: 0 for no effect and ±100 for the full control effect); conditions: NPR2-expressing cells, cGMP antagonist-mode read-out; at 38.3 µM (top of the series)
Procedure, shortened: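 Pilot selectivity screen against hNpr2: HEK293 cGMP-sensor cells are treated with LOPAC1280 compounds, then with hNppC peptide at 1 nM final. The cGMP-driven luminescence change over 20 min at room temperature is the read-out.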

[5] = target: T1, Tyrosine-protein phosphatase non-receptor type substrate 1 (Homo sapiens) + Leukocyte surface antigen CD47 (Homo sapiens) (UniProt P78324+Q08722); assay: CD47-SIRPalpha protein protein interaction - LANCE assay qHTS validation (AID 1347057; active = well fitted curve in the direction sought with a large enough effect in the signal ratio, with a control signal flat, not every such curve was filed as active; the % refers to the signal ratio; also: 0% is about no effect); conditions: Recombinant CD47-His / biotin-SIRPalpha, TR-FRET ratio; at 38.3 µM (top of the series)
Procedure, shortened: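 First, His-tagged CD47 and Eu-labelled anti-His antibody met the compound for 30 min; next, site-specifically biotinylated SIRPalpha was added for 30 min; finally streptavidin-APC was added before reading the TR-FRET ratio.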

[6] = target: T1, Tyrosine-protein phosphatase non-receptor type substrate 1 (Homo sapiens) + Leukocyte surface antigen CD47 (Homo sapiens); assay: CD47-SIRPalpha protein protein interaction - HTRF assay qHTS validation (AID 1347058; active = well fitted curve in the direction sought with a large enough effect in the signal ratio, not every such curve was filed as active; the % refers to the signal ratio;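 also: recombinant soluble extracellular CD47 with His tag and biotinylated SIRPalpha domains; 0% is about no effect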); conditions: TR-FRET HTRF CD47-His / biotin-SIRPalpha binding, ratio 665/615; at 38.3 µM (top of the series)
Procedure, shortened: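 TR-FRET read (Ch1/Ch2 ratio) of soluble extracellular CD47 and Avi-biotinylated SIRPalpha domains in PBS pH 7.4 with 0.05% IGEPAL; 7-point compound titration. Sequential 30 min room-temperature steps; non-biotinylated SIRPalpha as control inhibitor.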

[7] = target: T1, Tyrosine-protein phosphatase non-receptor type substrate 1 (Homo sapiens) + Leukocyte surface antigen CD47 (Homo sapiens); assay: CD47-SIRPalpha protein protein interaction - Alpha assay qHTS validation (AID 1347059); conditions: AlphaScreen CD47-His/biotin-SIRPalpha binding, LOPAC; at 38.3 µM (top of the series);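 also: bead proximity luminescence from CD47 binding SIRPalpha after compound preincubation with SIRPalpha; % is scaled to controls: 0 for no effect and ±100 for the full control effect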
Procedure, shortened: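 Binding is measured by AlphaScreen proximity: Ni-NTA acceptor beads capture His-CD47, streptavidin donor beads capture biotin-SIRPalpha. Each of three additions (SIRPalpha with compound, CD47, beads) incubates 30 min at room temperature protected from light.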

[8] = target: Parathyroid hormone/parathyroid hormone-related peptide receptor (Homo sapiens) (UniProt Q03431); assay: qHTS for PTHR1 Agonists: Optimization Screen against the NCGC LOPAC library (AID 1347079); conditions: HEK293 GP2 PTHR1 GloSensor cAMP luminescence, 1 h; at 57.1 µM (top of the series);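 also: GloSensor cAMP luminescence in HEK-293 GP2 cells expressing human PTHR1 with IBMX; 0% is about no effect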
Procedure, shortened: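 Agonist readout: GloSensor cAMP luminescence, read after 15 min at room temperature. HEK-293-derived GP2 line carries PTHR1; compounds tested as a titration for 1 hr at 37C in presence of IBMX. M-PTH (1-15) served as control.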

[9] = target: N-terminal Xaa-Pro-Lys N-methyltransferase 1 (Homo sapiens) (UniProt Q9BV86); assay: qHTS Assay for Inhibitors of N-terminal methyltransferase 1 (NTMT1): LOPAC validation of the NTMT1 SAHH-coupled ThioGlo3 Assay (AID 1347143); conditions: recombinant NTMT1, SAHH-coupled ThioGlo3 fluorescence; at 114 µM (top of the series);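 also: SAH from peptide methylation measured as thiol fluorescence via SAHH coupling and ThioGlo3; % is scaled to controls: 0 for no effect and ±100 for the full control effect; nearly all actives have a fitted effect of over 70% in size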
Procedure, shortened: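 Inhibition of NTMT1 methylation of peptide SPKRIA is followed by converting SAH with SAHH and labelling the released thiol with ThioGlo3. Plates are read at 340/450nm before and 30 min after reagent addition, both at room temperature.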

[10] = target: Lysine-specific demethylase 5B (Homo sapiens) (UniProt Q9UGL1); assay: Optimization screen for KDM5B Histone Demethylases FDH coupled qHTS against the LOPAC library (AID 1347166); conditions: KDM5B demethylation, FDH-coupled NADH fluorescence; at 57.5 µM (top of the series); also: 0% is about no effect
Procedure, shortened: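 KDM5BDeltaAP (200nM final) preincubated 10 min with compound, then 12.5uM H3K4Me3, 25uM a-ketoglutarate, ascorbate, Fe(II), NAD+ and FDH added; 50mM HEPES pH 7.5, 0.01% Tween-20. NADH fluorescence (340/450 nm) change over 30 min, room temperature.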

[11] = qHTS to identify inhibitors of the type 1 interferon - major histocompatibility complex class I in skeletal muscle: primary screen against the NCATS LOPAC collection (AID 1347405); conditions: iHSKM muscle cells, IFN-b-induced MHC-I HiBiT luminescence, 24 h; at 45.9 µM (top of the series)
Procedure, shortened: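 CRISPR-engineered immortalized human myoblasts (C25cl48) with HiBiT fused to endogenous HLA-B*08:01, stimulated with 4 ng/ml IFN-beta. LOPAC compounds tested as a 7-point 1:4.3 titration (top 46 uM final), 24 h at 37 C; lytic HiBiT luminescence read.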

[12] = qHTS for inhibitors of adenylyl cyclases using a fission yeast platform: a pilot screen against the NCATS LOPAC library (AID 1347410);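 also: plate controls were DMSO vehicle for no effect and DPI positive control for full effect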; conditions: S. pombe CHP2027, fbp1-GFP fluorescence, 18 h, yeast expressing mammalian AC9 and human GNAS; at 57.5 µM (top of the series)
Procedure, shortened: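 Fission yeast qHTS: CHP2027 cells (AC9-GNAS-PDE4D2, fbp1-GFP), 5x10^6 cells/mL working density, EMM + His/Lys/Ura; LOPAC at up to 57 µM final; 18 h dark, 30C; GFP by laser cytometry. DPI positive control, DMSO vehicle.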

[13] = Validation qHTS assay for inhibitors of Activation Induced Cytidine Deaminase (AID): UDG Counterscreen signal (AID 1347427); conditions: biochemical UDG counterscreen, fluorescence signal; at 115 µM (top of the series); also: 0% is about no effect
Procedure, shortened: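 Counterscreen read of UDG activity (2 U/mL, 4/3x) in the FRET deamination format with AID (1 uM, 4/3x), DJC20/DJC23 substrates (250 nM, 4x), 4 h at room temperature. NaOH stop, fluorescence at 560 ex/665 em.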

[14] = target: Single-stranded DNA cytosine deaminase (Homo sapiens) (UniProt Q9GZX7); assay: Validation qHTS assay for inhibitors of Activation Induced Cytidine Deaminase (AID): AID signal (AID 1347429); conditions: Recombinant AID, FRET ssDNA deamination with UDG, fluorescence; at 115 µM (top of the series); also: % is scaled to controls: 0 for no effect and ±100 for the full control effect
Procedure, shortened: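 FRET deamination assay: 1 uM AID (4/3x stock) with UDG, compound up to 114 uM, then 250 nM DJC20/DJC23 substrate (4x stock) for 4 hr at room temperature. NaOH added, 30 min; fluorescence read 540/590 nm.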

[15] = target: Calcium and integrin-binding protein 1 (Homo sapiens) (UniProt Q99828); assay: Validation qHTS for Identification of Calcium Integrin Binding protein 1 (CIB1) Competitor (AID 1508618); conditions: CIB1-GST / FITC-alphaIIb peptide fluorescence polarization; at 114 µM (top of the series); also: % is scaled to controls: 0 for no effect and ±100 for the full control effect
Procedure, shortened: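 Displacement of FITC-alphaIIb peptide (100 nM) from CIB1-GST (1 uM) is monitored by polarization in quantitative HTS format; buffer carries 5 mM CaCl2 and 125 mM NaCl at pH 7.4, incubations are at room temperature.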

[16] = target: Metallo-beta-lactamase type 2 (Klebsiella pneumoniae) (UniProt C7C422); assay: qHTS to identify inhibitors of the New Delhi Metallo-beta-lactamase (NDM): assay validation screen against the NCATS LOPAC Collection (AID 1794843); conditions: NDM-1 enzyme, nitrocefin hydrolysis, absorbance 485 nm; at 38.4 µM (top of the series)
Procedure, shortened: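 Enzyme 2 nM final, 50 mM HEPES pH 7.0, 1 uM ZnSO4, 0.01% Tween20; cpds in DMSO, preincub w/ enzyme; + nitrocefin (50 uM stock); A485 at plateau; no-enzyme column as blank.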

CN(C(=O)Cc1ccc(Cl)c(Cl)c1)[C@H]1CCCC[C@@H]1N1CCCC1
inactive: max response [1] 7.49% | activity change, negative = inhibition [2] -8.45% and 4.86% | activity change, negative = inhibition [3] 0.625% and 3.47% | activity change, negative = inhibition [4] -3.38% and -1.83% | activity change, negative = inhibition [5] 1.19% and 0.659% | activity change, negative = inhibition [6] -0.724% and -0.99% | activity change, negative = inhibition [7] -2.36% and -4.32% | activation [8] -18.2% and -3.31% | activity change, negative = inhibition [9] -15.8% and -30% | activity, negative = inhibition [10] -18.4% and -13.1% | activity change, negative = inhibition [11] 1.22% and 8.67% | activity, positive = inhibition (GFP gain) [12] 2.05% and -0.438% | activity, negative = inhibition [13] -4.97% and -4.75% | activity change, negative = inhibition [14] -0.999% and 5.97% | activity change, negative = inhibition [15] -1.51% and 2.73% | activity change, negative = inhibition [16] 4.8% and -0.921%
